BindingDB's records for doi:10.1021/ml400168h (Merck Research Laboratories, 2013)
pIC50: −log10 of the molar value.

Biological target: Sterol O-acyltransferase 1 / ACAT1 (Homo sapiens) (UniProt P35610)
Assay: Inhibition of human ACAT1

| Compound | pIC50 |
| --- | --- |
| Cc1ccc2[nH]c(-c3ccc(-c4ccc(O[C@H]5CC[C@H](C(=O)O)CC5)nc4)nc3)nc2n1 | 5.06 |
| Cc1ccc2[nH]c(-c3ccc(-c4ccc(O[C@H]5CC[C@@H](C(=O)O)CC5)nc4)nc3)nc2n1 | < 5.00 |
